# From patent US6288089A, “Use of kinase inhibitors for treating neurodegenerative diseases” (priority 1999, dated 2001)
# Tests used:
# [1] = test system: TH+ dopamine neurons of E15 rat mesencephalic primary cultures
# [2] = test system: E15 rat mesencephalic primary cultures
# [3] = test system: E15 rat mesencephalic primary cultures; remark: listed apart in the source
# [4] = test system: TH+ dopamine neurons of E15 rat ventral mesencephalic cultures
# [5] = test system: transplanted embryonic rat ventral mesencephalic dopamine neurons; details: in vivo
# 6-OHDA-lesioned rats = details: rat, in vivo
# [6] = test system: E15 rat mesencephalic primary cultures; assay: cells; details: 20 h, read-out: total cell survival
compound,measurement,setting,value
O=[N+]([O-])c1ccc(-c2nc(-c3ccc(F)cc3)c(-c3ccncc3)[nH]2)cc1 [PD 169316],morphology of TH+ neurons,[1],restored healthy morphology
same,protection of dopamine neurons from death by serum withdrawal,[1],highest and complete protection; also recorded: protected all TH+ neurons; also recorded: completely prevented dopamine cell death
same,"survival of TH+ neurons after serum withdrawal, dose dependence",[1],protected the TH+ cell population from cell death in a dose dependent manner
same,survival of dopamine neurons in serum containing cultures,[1],no effects
same,rescue of cells from serum-withdrawal induced death,[2],unable to rescue cells
same,basal apoptosis in cultures supplemented with serum,[3],no effect
same,anti-apoptotic effect in dopamine neurons after serum withdrawal,[4],fully blocked the increase in the apoptotic nuclear profiles
same,number of surviving dopamine neurons (TH+ cells) compared to sham-pretreated transplants,[5],nearly doubled
same,surviving dopamine neurons per transplant,[5],3023+/-585
same,methamphetamine-induced rotations,6-OHDA-lesioned rats,0.07+/-0.09 rpm
same,stopping of methamphetamine-induced rotations,6-OHDA-lesioned rats,only group to completely stop methamphetamine-induced rotations
same,viability at 1 µM,[6],48%
same,viability at 10 µM,[6],80%

# Entries after “also recorded” stand apart in the source; their conditions may differ.
